Measured values published in patent US9320741B2, “Compositions and methods for treating neoplasia, inflammatory disease and other disorders” (Dana-Farber Cancer Institute, Inc., priority 2010, dated 2016).

Target: BRD4(1) (Homo sapiens (Human), UniProt O60885)
Assay: Alpha-assay acetyl-histone binding, BRD4 site 1
Conditions: 12-point dose response curve, read-out: Bio-assay IC50 BRD4(1)
Description: The binding activity of lead compounds with the BRD4 site 1 was determined by Alpha-assay with a 12-point dose response curve (FIG. 56A).
Assays were performed as described previously^8 with minor modifications from the manufacturer's protocol (PerkinElmer, USA). All reagents were diluted in 50 mM HEPES, 100 mM NaCl, 0.1% BSA, pH 7.4 supplemented with 0.05% CHAPS and allowed to equilibrate to room temperature prior to addition to plates. […] Plates were sealed and incubated for a further 30 minutes, before the addition of 4 μl of streptavidin-coated donor beads (25 μg/ml) and 4 μl nickel chelate acceptor beads (25 μg/ml) under low light conditions. Plates were foil-sealed to protect from light, incubated at room temperature for 60 minutes and read on a PHERAstar FS plate reader (BMG Labtech, Germany) using an AlphaScreen 680 excitation/570 emission filter set. IC50 values were calculated in Prism 5 (GraphPad Software, USA) after normalization against corresponding DMSO controls and are given as the final concentration of compound in the 20 μl reaction volume.

SMILES: Cc1sc2c(c1C)C(c1ccc(Cl)cc1)=NC(CC(=O)NCCCN1CCN(C)CC1)c1nnc(C)n1-2 (stereo not shown) [JQ35]
- IC50: 24.3 nM
